Experimental data from patent US6593357B1, “Pyrazole compositions useful as inhibitors of ERK” (Vertex Pharmaceuticals Incorporated, priority 2000, dated 2003).

Sequences of proteins named here, by UniProt entry; tags and fusion partners are left off.
UniProt P28482, whole entry: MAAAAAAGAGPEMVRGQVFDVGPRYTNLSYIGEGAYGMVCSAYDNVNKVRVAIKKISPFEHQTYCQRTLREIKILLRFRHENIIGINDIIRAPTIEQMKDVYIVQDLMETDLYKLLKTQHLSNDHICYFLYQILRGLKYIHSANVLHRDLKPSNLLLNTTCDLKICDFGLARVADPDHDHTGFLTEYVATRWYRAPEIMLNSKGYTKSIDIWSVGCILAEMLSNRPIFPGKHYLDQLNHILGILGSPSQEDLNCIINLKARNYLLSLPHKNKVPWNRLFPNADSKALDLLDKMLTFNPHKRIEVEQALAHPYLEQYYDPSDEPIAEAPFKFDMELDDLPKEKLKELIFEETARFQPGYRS

Target: ERK2 (Homo sapiens, UniProt P28482)
Assay: ERK2 inhibition, spectrophotometric coupled-enzyme assay
Format: biochemical
Conditions: activated ERK2 10 nM, 65 μM ATP, 30° C., pH 7.5; read-out: ERK2 Inhibitory Activity (Ki class)

Q: With `COc1cccc(-c2cn[nH]c2-c2c[nH]c(C(=O)NC(C)C)c2)c1` [II-28] as the compound, how does the Ki read?
A: < 1000 nM
